Earlier results in publication PMC12627723, “Antineoplastic 4-piperidone-1-phosphonothioates with potential multi-targeted inhibitory properties” (Scientific Reports, 2025).

Test system: A431 (skin/squamous) cancer cell line
Conditions: read-out: IC50, (µM) ± SEM, A431 (standard drugs); standard reference drugs

## O=c1[nH]cc(F)c(=O)[nH]1 [5-Fluorouracil]
  IC50: 23.4 ± 2.09 µM
